Tests used:
[1] = target: recombinant RORγ Ligand Binding Domain (LBD) (Homo sapiens (Human), UniProt P51449); experiment: Radio-Ligand RORγ Binding Assay (Assay 1); details: SPA competition with 25-hydroxy [26,27-3H]-cholesterol, cell-free; read-out: RORγ Binding Ki Range
Procedure: Radio-Ligand RORγ Binding Assay (Assay 1)
Compounds of the present invention were tested for ability to bind to RORγ in a cell-free competition assay with commercially available radio-ligand (RL), 25-hydroxy [26,27-^3H]-cholesterol (PerkinElmer, Cat. #NET674250UC), for a ligand binding site on a recombinant RORγ Ligand Binding Domain (LBD) protein expressed as a 6×His-Glutathione-S-Transferase (GST) fusion. […] The plate was shaken at 700 rpm for 20 min and incubated for 10 min at rt, after which 40 μL of poly-Lys YSi SPA beads (PerkinElmer, Cat. #RPNQ0010) were added to achieve 50 μg of the beads per well. The plate was incubated on an orbital shaker for 20 min and then for 10 min without agitation at rt. SPA signal for tritium beta radiation was registered on PerkinElmer Microbeta plate reader. […] The percent inhibition vs. concentration data were fit into a four-parameter model, and IC50 values were calculated from the fit as the concentrations corresponding to the inflection points on the dose-response curves.

Sequences of proteins named here, by UniProt entry; tags and fusion partners are left off. A line that says so, or that is headed by a name, gives the form on record, which may keep a tag or linker. Residues count along the entry.
UniProt P51449, 269-508: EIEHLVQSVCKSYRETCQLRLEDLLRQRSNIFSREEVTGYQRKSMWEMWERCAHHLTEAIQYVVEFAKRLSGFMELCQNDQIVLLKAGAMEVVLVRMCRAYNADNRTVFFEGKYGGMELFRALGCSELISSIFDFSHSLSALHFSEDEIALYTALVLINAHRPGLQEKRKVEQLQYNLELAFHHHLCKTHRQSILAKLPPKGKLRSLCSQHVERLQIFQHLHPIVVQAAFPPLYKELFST
UniProt P51449, other isoform, or with tags, fused parts or gaps: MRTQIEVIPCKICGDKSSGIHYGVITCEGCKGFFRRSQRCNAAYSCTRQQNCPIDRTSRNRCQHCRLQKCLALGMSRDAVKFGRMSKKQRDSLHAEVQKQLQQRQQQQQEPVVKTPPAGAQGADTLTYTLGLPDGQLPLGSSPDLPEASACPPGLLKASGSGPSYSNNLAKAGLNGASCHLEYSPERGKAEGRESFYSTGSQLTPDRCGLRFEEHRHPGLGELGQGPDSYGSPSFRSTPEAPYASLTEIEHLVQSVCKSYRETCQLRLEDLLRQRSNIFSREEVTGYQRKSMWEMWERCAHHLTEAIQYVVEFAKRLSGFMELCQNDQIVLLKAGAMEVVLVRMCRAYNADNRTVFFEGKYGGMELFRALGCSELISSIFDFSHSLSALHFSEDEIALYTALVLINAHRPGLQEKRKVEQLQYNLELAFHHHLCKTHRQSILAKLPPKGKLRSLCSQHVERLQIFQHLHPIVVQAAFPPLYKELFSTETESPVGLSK

full-length RORγt = full-length RORγt (Homo sapiens (Human), UniProt P51449); experiment: RORγt 5×RORE Assay in Jurkat Cells (Assay 2); format: cell-based; details: secreted Nanoluc luciferase 5×RORE reporter, 16-18 hrs, read-out: RORγt5X IC50 Range
Procedure: [formula] RORγt 5×RORE Assay in Jurkat Cells (Assay 2)
Compounds of the present invention were tested for RORγ inverse agonist activity in a cell-based, transcriptional activity assay. […] (Promega, Cat. #N1021) using KpnI and HindIII restriction sites. […] Luciferase activity in the conditioned supernatants was determined with NanoGlo® assay reagents (Promega, Cat. #N1130).

Ki [1]	IC50 (full-length RORγt)	Compound
100 to 1000 nM	> 1000 nM	CCS(=O)(=O)c1ccc(CNC(=O)c2cnc3c(c2)CN(c2ncc(CO)c(C(F)(F)F)n2)[C@H]3C(C)C)cc1 [Compound 12]
100 to 1000 nM	–	CCS(=O)(=O)c1ccc(CNC(=O)c2cnc3c(c2)CN(Cc2cnc(C(F)(F)F)nc2)[C@H]3C(C)C)cc1 [Compound 26]
< 100 nM	100 to 1000 nM	CCS(=O)(=O)c1ccc(CNC(=O)c2cnc3c(c2)CN(Cc2ccc(C(F)(F)F)cn2)[C@H]3C(C)C)cc1 [Compound 27]
< 100 nM	100 to 1000 nM	CCS(=O)(=O)c1ccc(CNC(=O)c2cnc3c(c2)C(=O)N(Cc2ccc(C(F)(F)F)cc2)[C@H]3C(C)C)cc1 [Compound 32]
< 100 nM	100 to 1000 nM	CCS(=O)(=O)c1ccc(CNC(=O)c2cnc3c(c2)CN(Cc2ccc(-c4nnn(C)n4)cc2)[C@H]3C(C)C)cc1 [Compound 38]
–	< 100 nM	CCS(=O)(=O)c1ccc(CNC(=O)c2cnc3c(c2)CN(Cc2ccc(C(F)(F)F)nc2)[C@H]3C(C)C)cc1 [Compound 39]
100 to 1000 nM	–	CCS(=O)(=O)c1ccc(CNC(=O)c2cnc3c(c2)CN(Cc2ccc(C(F)(F)F)nc2)[C@@H]3C(C)C)cc1 [Compound 40]
> 1000 nM	> 1000 nM	CCS(=O)(=O)c1ccc(CNC(=O)c2cnc3c(c2)CN(Cc2ccc(C#N)cc2)[C@H]3[C@@H]2CCOC2)cc1 [Compound 48]
> 1000 nM	> 1000 nM	CCS(=O)(=O)c1ccc(CNC(=O)c2cnc3c(c2)CN(Cc2ccc(C#N)cc2)[C@H]3[C@H]2CCOC2)cc1 [Compound 50]
100 to 1000 nM	100 to 1000 nM	CCS(=O)(=O)c1ccc(CNC(=O)c2cnc3c(c2)CN(Cc2ccc(C#N)cc2)[C@@H]3[C@@H]2CCOC2)cc1 [Compound 51]
100 to 1000 nM	100 to 1000 nM	CCS(=O)(=O)c1ccc(CNC(=O)c2cnc3c(c2)CN(Cc2ccc(C#N)cc2)[C@@H]3[C@H]2CCOC2)cc1 [Compound 52]
100 to 1000 nM	–	COc1cccc(C(C)(C)CNC(=O)c2cnc3c(c2)CN(Cc2ccc(C(F)(F)F)cc2)[C@H]3C(C)C)c1 [Compound 72]
100 to 1000 nM	–	COC(=O)C[C@H]1CC[C@H](CNC(=O)c2cnc3c(c2)CN(Cc2ccc(C(F)(F)F)cc2)[C@H]3C(C)C)CC1 [Compound 127]
100 to 1000 nM	–	COC(=O)CC(NC(=O)c1cnc2c(c1)CN(Cc1ccc(C(F)(F)F)cc1)[C@H]2C(C)C)c1ccc(Br)cc1 (stereo partly drawn) [Compound 128]
< 100 nM	100 to 1000 nM	CCS(=O)(=O)c1ccc(CNC(=O)c2cnc3c(c2)CN(Cc2ccc(C(F)(F)F)cc2)[C@H]3C(C)C)nc1C [Compound 143]

Source: patent publication US9624217B2, “Dihydropyrrolopyridine inhibitors of ROR-gamma” (Vitae Pharmaceuticals, Inc., priority 2014, dated 2017)
